Assay results: US20100015141A1, “4-PHENOXY-6-ARYL-1H-PYRAZOLO[3,4-D]PYRIMIDINE AND N-ARYL-6-ARYL-1H-PYRAZOLO[3,4-D]PYRIMIDIN-4-AMINE COMPOUNDS, THEIR USE AS MTOR KINASE AND PI3 KINASE INHIBITORS, AND THEIR SYNTHESES” (Wyeth, priority 2008, published 2010)

Amino acid sequences for entries named in this document (tags omitted).
UniProt P42336, whole entry: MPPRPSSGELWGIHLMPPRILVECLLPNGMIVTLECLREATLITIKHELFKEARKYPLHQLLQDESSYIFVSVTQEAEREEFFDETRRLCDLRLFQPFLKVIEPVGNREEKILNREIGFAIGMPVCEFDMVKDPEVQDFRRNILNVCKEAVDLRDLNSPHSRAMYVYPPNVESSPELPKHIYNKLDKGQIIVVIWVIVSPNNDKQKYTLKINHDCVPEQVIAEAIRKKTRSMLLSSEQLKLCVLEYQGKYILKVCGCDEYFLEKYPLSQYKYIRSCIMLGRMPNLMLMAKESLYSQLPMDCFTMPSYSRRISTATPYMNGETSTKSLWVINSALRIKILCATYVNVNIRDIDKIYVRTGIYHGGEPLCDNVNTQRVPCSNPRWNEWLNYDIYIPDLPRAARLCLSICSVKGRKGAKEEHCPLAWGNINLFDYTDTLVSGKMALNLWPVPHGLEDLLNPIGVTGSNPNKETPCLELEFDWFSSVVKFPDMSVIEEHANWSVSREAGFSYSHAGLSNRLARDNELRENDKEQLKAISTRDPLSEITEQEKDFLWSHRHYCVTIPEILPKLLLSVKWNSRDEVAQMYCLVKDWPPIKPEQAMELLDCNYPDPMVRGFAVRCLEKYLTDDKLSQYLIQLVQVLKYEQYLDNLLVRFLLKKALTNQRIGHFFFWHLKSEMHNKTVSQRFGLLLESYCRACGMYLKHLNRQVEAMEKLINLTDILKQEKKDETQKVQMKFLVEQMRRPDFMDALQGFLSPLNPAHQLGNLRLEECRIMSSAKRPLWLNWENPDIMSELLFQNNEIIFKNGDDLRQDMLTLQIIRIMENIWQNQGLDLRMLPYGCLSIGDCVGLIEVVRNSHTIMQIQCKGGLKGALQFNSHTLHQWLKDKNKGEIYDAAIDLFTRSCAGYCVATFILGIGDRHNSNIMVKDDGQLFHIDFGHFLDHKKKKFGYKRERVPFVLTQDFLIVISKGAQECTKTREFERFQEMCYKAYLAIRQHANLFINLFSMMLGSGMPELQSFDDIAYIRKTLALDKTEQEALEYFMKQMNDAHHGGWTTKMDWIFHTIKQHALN
UniProt P27986, whole entry partner: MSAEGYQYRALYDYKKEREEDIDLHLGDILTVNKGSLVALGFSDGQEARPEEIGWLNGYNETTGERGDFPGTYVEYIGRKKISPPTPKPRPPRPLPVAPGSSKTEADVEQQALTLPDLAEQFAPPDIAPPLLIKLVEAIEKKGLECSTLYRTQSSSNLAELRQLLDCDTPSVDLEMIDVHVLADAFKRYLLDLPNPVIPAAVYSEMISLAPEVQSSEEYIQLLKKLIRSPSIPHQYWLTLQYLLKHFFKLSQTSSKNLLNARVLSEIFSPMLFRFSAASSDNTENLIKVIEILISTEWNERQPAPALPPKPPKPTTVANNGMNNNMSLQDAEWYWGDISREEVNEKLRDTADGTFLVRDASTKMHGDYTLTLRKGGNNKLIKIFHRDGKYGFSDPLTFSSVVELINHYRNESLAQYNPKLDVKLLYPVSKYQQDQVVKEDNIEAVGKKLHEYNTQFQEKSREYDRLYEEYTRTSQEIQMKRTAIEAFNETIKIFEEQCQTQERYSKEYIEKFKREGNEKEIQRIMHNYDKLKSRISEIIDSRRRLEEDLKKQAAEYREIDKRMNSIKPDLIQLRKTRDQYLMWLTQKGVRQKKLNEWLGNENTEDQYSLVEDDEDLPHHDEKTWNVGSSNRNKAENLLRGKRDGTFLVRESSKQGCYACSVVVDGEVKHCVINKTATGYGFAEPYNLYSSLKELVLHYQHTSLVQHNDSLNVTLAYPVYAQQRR

Assays:
mTOR = mTOR (Homo sapiens, UniProt P42345); experiment: mTOR enzyme assay (DELFIA, His6-S6K phosphorylation); type: biochemical; settings: read-out: mTOR avg IC50; 100 μM ATP, 1.25 μM His6-S6K; tested form: trifluoroacetate (TFA salt)
PI3K-α = PI3K-α (Homo sapiens, UniProt P42336); experiment: PI3K-alpha fluorescence polarization assay; type: biochemical; settings: read-out: PI3K-α avg IC50; 20 μM PIP2, 25 μM ATP; tested form: trifluoroacetate (TFA salt)

Cn1ncc2c(Nc3ccc(C(N)=O)cc3)nc(Nc3ccc(NC(=O)Nc4cccnc4)cc3)nc21
IC50 (mTOR): 13 nM | IC50 (PI3K-α): 1 nM
